From patent US5798442A, “Peptidyl derivatives as inhibitors of pro-apoptotic cysteine proteinases” (Merck Frosst Canada, Inc., priority 1995, dated 1998)

Columns and labels:
[1] = target: T1, apopain/CPP32 (Homo sapiens, UniProt P42574); experiment: continuous fluorometric assay with Ac-DEVD-AMC and purified apopain; format: biochemical
T1 construct: cleavage between Asp^28 -Ser^29 and Asp^175 -Ser^176; cleavage sites which yield the p17 and p12 subunits from the CPP32 proenzyme; endogenous in cells; host or cells: THP-1 cells (ATCC TIB 202)
T1 sequence (P42574 29-175 limits assumed): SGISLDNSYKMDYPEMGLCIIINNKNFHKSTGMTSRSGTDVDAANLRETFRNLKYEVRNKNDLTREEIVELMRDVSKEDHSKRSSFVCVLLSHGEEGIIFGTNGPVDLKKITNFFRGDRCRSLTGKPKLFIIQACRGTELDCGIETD
T1 sequence (P42574 176-277 limits assumed): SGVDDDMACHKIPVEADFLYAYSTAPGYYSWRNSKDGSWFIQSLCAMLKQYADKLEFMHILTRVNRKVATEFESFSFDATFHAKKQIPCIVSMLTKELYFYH

[2] = target: T2, PARP cleavage activity in apoptotic osteosarcoma cell extracts (Homo sapiens, UniProt P42574); experiment: [35S]PARP cleavage by cytosolic extracts of apoptotic osteosarcoma cells; format: biochemical
T2 construct: 10 μg protein from the cytosol fraction of apoptotic osteosarcoma cells (from 7 day, post-confluent cultures); endogenous in cells; host or cells: human osteosarcoma cells 143.98.2 (ATCC CRL 11226), 7 day post-confluent (apoptotic), cytosol fraction
T2 sequence (P42574 29-175 limits assumed): T1 sequence (P42574 29-175 limits assumed)
T2 sequence (P42574 176-277 limits assumed): T1 sequence (P42574 176-277 limits assumed)

CC(=O)N[C@@H](CC(=O)O)C(=O)N[C@@H](CCC(=O)O)C(=O)N[C@H](C(=O)NC(C=O)CC(=O)O)C(C)C (stereo partly drawn) [Ac-DEVD-CHO, N-(N-Acetyl-L-aspartyl-L-glutamyl-L-valinyl)-3-amino-3-formylpropionic acid]
Ki [1]: < 1 nM | IC50 [2]: 0.2 nM
